Values of other authors as cited in patent US6335316B1, “Method for administering acylated insulin” (Eli Lilly and Company, priority 1997, dated 2002).

Substance: insulin
- bioavailability relative to subcutaneous (1 μm MMAD insulin aerosols): 100%
- bioavailability relative to subcutaneous administration (inhalation of 4 μm MMAD insulin aerosols): 38%
